Data from the OPERA property sets (Mansouri et al. 2018).

Conditions: experimental values compiled from the literature

Cc1ccc([N+](=O)[O-])c([N+](=O)[O-])c1
solubility: 549 µM (≈ 100 µg/mL)

Values after ≈ are worked out from the molar mass of the structure shown.
